Experimental data published in patent publication US20030017150A1.

Sequences of proteins named here, by UniProt entry; tags and fusion partners are left off. Residues count along the entry.
UniProt P01375, 77-233 limits assumed: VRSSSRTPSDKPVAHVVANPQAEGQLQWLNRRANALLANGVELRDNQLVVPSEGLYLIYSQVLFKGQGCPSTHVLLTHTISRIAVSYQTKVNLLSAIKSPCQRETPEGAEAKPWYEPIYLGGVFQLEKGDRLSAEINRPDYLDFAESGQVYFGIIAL

Molecular target: recombinant human TNF (human) (UniProt P01375)
Test: binding assays of cA2 and recombinant human TNF; format not stated

Ka: 1.04e+10 M⁻¹
Substance: Chimeric Ig derived protein cA2 (antibody)
